From patent publication US8067590B2, “Pyridone derivates with MCH antagonistic activity and medicaments comprising these compounds” (Boehringer Ingelheim International GmbH, priority 2006, dated 2011)

The chains behind the UniProt entries cited, without tags or fusion partners.
UniProt Q99705, whole entry: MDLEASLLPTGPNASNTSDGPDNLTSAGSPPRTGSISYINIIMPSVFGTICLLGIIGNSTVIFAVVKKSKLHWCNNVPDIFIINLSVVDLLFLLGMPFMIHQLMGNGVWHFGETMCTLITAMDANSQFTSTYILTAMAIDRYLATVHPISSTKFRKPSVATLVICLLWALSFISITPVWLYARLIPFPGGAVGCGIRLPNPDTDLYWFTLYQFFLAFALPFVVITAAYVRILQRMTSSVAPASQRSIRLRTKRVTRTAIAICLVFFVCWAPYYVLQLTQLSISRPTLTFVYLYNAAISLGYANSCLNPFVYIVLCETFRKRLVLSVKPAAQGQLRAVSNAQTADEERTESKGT

Target: hMCH-1R (Homo sapiens, UniProt Q99705)
Assay: MCH-1 receptor binding test (125I-MCH binding to membranes of hMCH-1R transfected CHO/Galpha16 cells)
Details: read-out: IC50 value

SMILES | IC50 [nM]
CN1CCc2ccc(C(=O)Cn3ncc(OCc4ccc(Br)cn4)cc3=O)cc2C1 | 18
CN1CCc2ccc(C(=O)Cn3ccc(OCc4ccccc4)cc3=O)cc2C1 | 18
O=C(Cn1ncc(OCc2ccc(Br)cn2)cc1=O)c1ccc2c(c1)CNCC2 | 17

Other lines, results leading:

IC50 [nM] | SMILES
15 | O=C(Cn1ccc(OCc2ccc(Br)cn2)cc1=O)c1ccc2c(c1)CNCC2
40 | Cc1ccc(COc2ccn(CCc3ccc4c(c3)CCN(C)CC4)c(=O)c2)nc1
12 | O=c1cc(OCc2cccs2)ccn1CCc1ccc2c(c1)CCNCC2
